Values of other authors as cited in US10755801B2, “Identifying peptides having T-cell-exposed motifs with known frequency of occurrence in a reference database” (IOGENETICS, LLC, priority 2014, dated 2020).
Where two headings read alike, the source gives them in different places.

Test system: CD8+ responses, HLA A 0201 restricted
Conditions: MART-1 peptides, A*0201, melanoma patients, Kawakami

AAGIGILTV
CD8+ T-cell response: immunodominant CD8+ epitope
CD8+ T-cell response (listed as 27): stimulated a response
